Data reported in US5491132A.

Sequences of proteins named here, by UniProt entry; tags and fusion partners are left off. Residues count along the entry.
UniProt P00797, 67-406 limits assumed: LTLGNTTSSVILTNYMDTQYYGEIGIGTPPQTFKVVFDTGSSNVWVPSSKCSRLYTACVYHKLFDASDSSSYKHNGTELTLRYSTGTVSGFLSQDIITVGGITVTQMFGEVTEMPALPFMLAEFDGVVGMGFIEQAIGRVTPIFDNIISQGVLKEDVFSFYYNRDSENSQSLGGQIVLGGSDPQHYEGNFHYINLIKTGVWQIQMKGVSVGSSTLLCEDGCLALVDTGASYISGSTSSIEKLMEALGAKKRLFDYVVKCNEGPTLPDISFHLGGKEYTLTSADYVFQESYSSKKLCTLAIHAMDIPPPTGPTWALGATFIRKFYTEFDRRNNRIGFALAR

target: renin (Homo sapiens, UniProt P00797); assay: Inhibition of human plasma renin activity (angiotensin I formation, RIA); conditions: pooled human plasma, endogenous renin and angiotensinogen, pH 6.0, 37° C., 90 minutes incubation, Ang I measured by RIA; Probit method; tested form: HCl
Method: Human plasma was collected from male volunteers pretreated with no drugs and used as a pool. Disodium salt of ethylenediaminetetraacetic acid (EDTA) was used as the anticoagulant. Plasma renin activity was measured as the rate of angiotensin I (Ang I) formation after incubation (37° C.) of the endogenous renin and angiotensinogen in plasma at pH 6.0. The incubation mixture contained 250 μl of plasma, 5 μl of (phenylmethyl)sulfonyl fluoride, 30 μl of buffer (sodium, potassium-phosphate, pH 6.0), and 15 μl of an appropriate concentration of test compound in 50% ethyl alcohol-water vehicle. The Ang I formed after 90 minutes of incubation was measured by radioimmunoassay (RIA) which was carried out with a commercial kit, RENIN.RIABEAD (Trademark: manufactured by Dainabot Co., Ltd.). Samples were incubated in duplicate and each tube was measured in duplicate in the RIA. Percentage inhibition of plasma renin activity was calculated by comparing the amount of Ang I produced with and without a test compound. The concentration of test compound that inhibited plasma renin activity by 50% (IC50) was determined by Probit method.

IC50 | Compound
0.29 nM | CC(C)CC[C@H](O)[C@H](CC1CCCCC1)NC(=O)[C@H](Cc1c[nH]cn1)N(C)C(=O)[C@H](Cc1ccccc1)NC(=O)N(C)CCN(C)C(=O)N1CCSCC1
0.079 nM | CC(C)C[C@H](O)[C@H](CC1CCCCC1)NC(=O)[C@H](Cc1c[nH]cn1)N(C)C(=O)[C@H](Cc1ccccc1)NC(=O)N(C)CCN(C)C(=O)N1CCSCC1
0.38 nM | CCCN(CCC)C(=O)N(C)CCN(C)C(=O)N[C@@H](Cc1ccccc1)C(=O)N(C)[C@@H](Cc1c[nH]cn1)C(=O)N[C@@H](CC1CCCCC1)[C@@H](O)CCC(C)C
1.7 nM | CCC(CC)C[C@H](O)[C@H](CC1CCCCC1)NC(=O)[C@H](Cc1c[nH]cn1)N(C)C(=O)[C@H](Cc1ccccc1)NC(=O)N(C)CCC(=O)N1CCOCC1
3.1 nM | CC(C)C[C@H](O)[C@H](CC1CCCCC1)NC(=O)[C@H](Cc1c[nH]cn1)N(C)C(=O)[C@H](Cc1ccccc1)OC(=O)N(C)CCN(C)C(=O)N1CCOCC1
0.72 nM | CN(CCN(C)C(=O)N1CCSCC1)C(=O)N[C@@H](Cc1ccccc1)C(=O)N(C)[C@@H](Cc1c[nH]cn1)C(=O)N[C@@H](CC1CCCCC1)[C@@H](O)CC1CCCCC1
3.9 nM | CC(C)CC[C@H](O)[C@H](CC1CCCCC1)NC(=O)[C@H](Cc1c[nH]cn1)N(C)C(=O)[C@H](Cc1ccccc1)NC(=O)N(C)CCN(C)C(=O)N1CCc2ccccc2C1
3.9 nM | CCC(CC)C[C@H](O)[C@H](CC1CCCCC1)NC(=O)[C@H](Cc1c[nH]cn1)N(C)C(=O)[C@H](Cc1ccccc1)OC(=O)N(C)CCN(C)C(=O)N1CCSCC1
0.3 nM | CCC(CC)C[C@H](O)[C@H](CC1CCCCC1)NC(=O)[C@H](Cc1c[nH]cn1)N(C)C(=O)[C@H](Cc1ccccc1)NC(=O)N(C)CCN(C)C(=O)N1CCOCC1
1 nM | CC(C)CC[C@H](O)[C@H](CC1CCCCC1)NC(=O)[C@H](Cc1c[nH]cn1)N(C)C(=O)[C@H](Cc1ccccc1)NC(=O)N(C)CCN(C)C(=O)N1CCCCC1
0.47 nM | CC(C)C[C@H](O)[C@H](CC1CCCCC1)NC(=O)[C@H](Cc1c[nH]cn1)N(C)C(=O)[C@H](Cc1ccccc1)NC(=O)N(C)CCN(C)C(=O)N1CCOCC1
